23 compounds from US20250195530A1, “POLQ INHIBITORS” (ASTRAZENECA AB, priority 2022, published 2025) can be followed below.

The chains behind the UniProt entries cited, without tags or fusion partners. Residues count along the entry.
UniProt O75417, 1780-2590: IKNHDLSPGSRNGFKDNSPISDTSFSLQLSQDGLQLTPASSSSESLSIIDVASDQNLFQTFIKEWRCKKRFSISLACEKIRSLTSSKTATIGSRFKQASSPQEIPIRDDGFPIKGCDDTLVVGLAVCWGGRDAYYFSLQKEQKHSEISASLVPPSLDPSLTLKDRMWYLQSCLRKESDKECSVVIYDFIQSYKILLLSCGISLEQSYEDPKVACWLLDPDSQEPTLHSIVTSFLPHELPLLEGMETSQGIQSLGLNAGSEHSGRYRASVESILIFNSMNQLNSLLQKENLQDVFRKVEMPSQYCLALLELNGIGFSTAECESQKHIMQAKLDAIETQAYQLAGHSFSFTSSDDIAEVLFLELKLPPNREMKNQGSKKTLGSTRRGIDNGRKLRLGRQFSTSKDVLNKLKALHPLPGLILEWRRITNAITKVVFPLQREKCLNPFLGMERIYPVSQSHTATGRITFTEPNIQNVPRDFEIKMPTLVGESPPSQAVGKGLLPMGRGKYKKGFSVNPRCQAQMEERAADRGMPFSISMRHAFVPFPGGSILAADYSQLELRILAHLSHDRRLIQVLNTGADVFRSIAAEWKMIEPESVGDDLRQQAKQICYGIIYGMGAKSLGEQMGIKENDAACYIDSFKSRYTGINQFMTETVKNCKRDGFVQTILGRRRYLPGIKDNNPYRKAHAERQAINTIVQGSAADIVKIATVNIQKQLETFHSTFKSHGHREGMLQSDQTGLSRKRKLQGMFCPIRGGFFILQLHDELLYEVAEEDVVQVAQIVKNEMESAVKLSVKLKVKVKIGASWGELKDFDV

For this assay, the target named is isolated polymerase domain (I1780-V2590) of DNA polymerase theta (Polθ) (Homo sapiens (Human), UniProt O75417).

In general, IC50 refers to the concentration at which inhibition is half-maximal. A lower IC50 goes with greater potency in that assay. Compound `CN1CCC(COc2ccc(-c3nc4c(OC5(C)CC5)ncnc4n3Cc3ccccc3)c(Cl)c2)CC1` [Example 5, 9-Benzyl-8-(2-chloro-4-((1-methylpiperidin-4-yl)methoxy)phenyl)-6-(1-methylcyclopropoxy)-9H-purine] had an IC50 of 2 nM. The value for `CC1(Oc2ncnc3c2nc(-c2ccc(OCCN4CCNCC4)cc2Cl)n3Cc2ccccc2)CC1` [Example 6, 9-Benzyl-8-(2-chloro-4-(2-(piperazin-1-yl)ethoxy)phenyl)-6-(1-methylcyclopropoxy)-9H-purine] was 3.16 nM; that for `Cc1nc(Cn2c(-c3ccc(OCCN4CCN(C)CC4)cc3Cl)nc3c(OC4(C)CC4)ncnc32)cs1` [Example 7, 4-((8-(2-Chloro-4-(2-(4-methylpiperazin-1-yl)ethoxy)phenyl)-6-(1-methylcyclopropoxy)-9H-purin-9-yl)methyl)-2-methylthiazole] was 3.98 nM. The value for `CC(C)Oc1ccc2c(n1)nc(-c1ccc(OCCN3CCNCC3)cc1Cl)n2Cc1ccccc1` [Example 8, 1-Benzyl-2-(2-chloro-4-(2-(piperazin-1-yl)ethoxy)phenyl)-5-isopropoxy-1H-imidazo[4,5-b]pyridine] was 7.94 nM; that for `CC(C)Oc1nccc2c1nc(-c1ccc(OCCN3CCNCC3)cc1Cl)n2Cc1ccccc1` [Example 9, 1-benzyl-2-(2-chloro-4-(2-(piperazin-1-yl)ethoxy)phenyl)-4-isopropoxy-1H-imidazo[4,5-c]pyridine] was 7.94 nM; that for `CC1(Oc2ncnc3c2nc(-c2ccc(OCCN4CCNCC4)cc2Cl)n3Cc2cc(Cl)ccn2)CC1` [Example 10, 8-(2-Chloro-4-(2-(piperazin-1-yl)ethoxy)phenyl)-9-((4-chloropyridin-2-yl)methyl)-6-(1-methylcyclopropoxy)-9H-purine] was 6.31 nM. The value for `CC(C)(Oc1ncnc2c1nc(-c1ccc(OCCN3CCNCC3)cc1Cl)n2Cc1ccccc1)C(F)(F)F` [Example 11, 9-Benzyl-8-(2-chloro-4-(2-(piperazin-1-yl)ethoxy)phenyl)-6-((1,1,1-trifluoro-2-methylpropan-2-yl)oxy)-9H-purine] was 2.51 nM; that for `CC1(Oc2ncnc3c2nc(-c2ccc(OCCN4CCNCC4)cc2Cl)n3Cc2ccccc2)CCC1` [Example 12, 9-Benzyl-8-(2-chloro-4-(2-(piperazin-1-yl)ethoxy)phenyl)-6-(1-methylcyclobutoxy)-9H-purine] was 3.98 nM; that for `N#CC1(Oc2ncnc3c2nc(-c2ccc(OCCN4CCNCC4)cc2Cl)n3Cc2ccccc2)CC1` [Example 13, 1-((9-Benzyl-8-(2-chloro-4-(2-(piperazin-1-yl)ethoxy)phenyl)-9H-purin-6-yl)oxy)cyclopropane-1-carbonitrile] was 3.16 nM.

Take `CC1(Oc2ccnc3c2nc(-c2ccc(OCCN4CCNCC4)cc2Cl)n3Cc2cc(Cl)ccn2)CC1` [Example 14, 2-(2-Chloro-4-(2-(piperazin-1-yl)ethoxy)phenyl)-3-((4-chloropyridin-2-yl)methyl)-7-(1-methylcyclopropoxy)-3H-imidazo[4,5-b]pyridine]: half-maximal inhibition (IC50) was put at 2.51 nM. For `CC1(Oc2cccc3c2nc(-c2ccc(OCCN4CCNCC4)cc2Cl)n3Cc2cc(Cl)ccn2)CC1` [Example 15, 2-(2-chloro-4-(2-(piperazin-1-yl)ethoxy)phenyl)-1-((4-chloropyridin-2-yl)methyl)-4-(1-methylcyclopropoxy)-1H-benzo[d]imidazole], the IC50 was 2 nM. The value for `CC1(Oc2nccc3c2nc(-c2ccc(OCCN4CCNCC4)cc2Cl)n3Cc2cc(Cl)ccn2)CC1` [Example 16, 2-(2-chloro-4-(2-(piperazin-1-yl)ethoxy)phenyl)-1-((4-chloropyridin-2-yl)methyl)-4-(1-methylcyclopropoxy)-1H-imidazo[4,5-c]pyridine] was 2.51 nM; that for `CN(C)CCCOc1ccc(-c2nc3c(OC4(C)CC4)ncnc3n2Cc2cc(Cl)ccn2)c(Cl)c1` [Example 17, 3-(3-Chloro-4-(9-((4-chloropyridin-2-yl)methyl)-6-(1-methylcyclopropoxy)-9H-purin-8-yl)phenoxy)-N,N-dimethylpropan-1-amine] was 6.31 nM; that for `CC1(Oc2ncnc3c2nc(-c2ccc(OCCN4CC5(CNC5)C4)cc2Cl)n3Cc2ccccc2)CC1` [Example 18, 8-(4-(2-(2,6-Diazaspiro[3.3]heptan-2-yl)ethoxy)-2-chlorophenyl)-9-benzyl-6-(1-methylcyclopropoxy)-9H-purine] was 3.16 nM.

As to `Cc1cc(N2CC(N)C2)ncc1-c1nc2c(OC3(C)CC3)ncnc2n1Cc1ccccc1` [Example 19, 1-(5-(9-Benzyl-6-(1-methylcyclopropoxy)-9H-purin-8-yl)-4-methylpyridin-2-yl)azetidin-3-amine], 3.16 nM corresponded to half-maximal inhibition (IC50). For `CN1CCN(CCOc2cc(Cl)c(-c3nc4c(OC5(C)CC5)ncnc4n3Cc3ccccc3)cn2)CC1` [Example 20, 9-Benzyl-8-(4-chloro-6-(2-(4-methylpiperazin-1-yl)ethoxy)pyridin-3-yl)-6-(1-methylcyclopropoxy)-9H-purine] the value was 5.01 nM; for `Cc1c(OCCN2CCNCC2)cncc1-c1nc2c(OC3(C)CC3)ncnc2n1Cc1ccccc1` [Example 22, 9-Benzyl-8-(4-methyl-5-(2-(piperazin-1-yl)ethoxy)pyridin-3-yl)-6-(1-methylcyclopropoxy)-9H-purine], 7.94 nM; for `CC1(Oc2ncnc3c2nc(-c2ccc(OCCN4CCNCC4)cc2Cl)n3Cc2cccc(Cl)n2)CC1` [Example 23, 8-(2-chloro-4-(2-(piperazin-1-yl)ethoxy)phenyl)-9-((6-chloropyridin-2-yl)methyl)-6-(1-methylcyclopropoxy)-9H-purine], 12.6 nM.

In turn, `Cc1cc(OCCN2CCNCC2)ncc1-c1nc2c(OC3(C)CCC3)ncnc2n1Cc1ccccc1` [Example 24, 9-Benzyl-8-(4-methyl-6-(2-(piperazin-1-yl)ethoxy)pyridin-3-yl)-6-(1-methylcyclobutoxy)-9H-purine] had an IC50 of 5.01 nM. The value for `Cc1ccnc(Cn2c(-c3ccc(OCCN(C)C)cc3Cl)nc3c(OC4(C)CC4)ncnc32)c1` [Example 25, 2-(3-Chloro-4-(6-(1-methylcyclopropoxy)-9-((4-methylpyridin-2-yl)methyl)-9H-purin-8-yl)phenoxy)-N,N-dimethylethan-1-amine] was 6.31 nM; that for `Cc1ccnc(Cn2c(-c3ccc(OCCN4CC(O)C4)cc3Cl)nc3c(OC4(C)CC4)ncnc32)c1` [Example 26, 1-(2-(3-Chloro-4-(6-(1-methylcyclopropoxy)-9-((4-methylpyridin-2-yl)methyl)-9H-purin-8-yl)phenoxy)ethyl)azetidin-3-ol] was 3.98 nM; that for `Cc1ccnc(Cn2c(-c3ccc(CC(N)=O)cc3Cl)nc3c(OC4(C)CC4)ncnc32)c1` [Example 30, 2-(3-Chloro-4-(6-(1-methylcyclopropoxy)-9-((4-methylpyridin-2-yl)methyl)-9H-purin-8-yl)phenyl)acetamide] was 7.94 nM. For `CC1(Oc2ncnc3c2nc(-c2ccc(/C=C/C(=O)O)cc2Cl)n3Cc2cccc(Cl)c2)CC1` [Example 31, (E)-3-(3-Chloro-4-(9-(3-chlorobenzyl)-6-(1-methylcyclopropoxy)-9H-purin-8-yl)phenyl)acrylic acid] the value was 3.16 nM.
